Patent US8163768B2, “1,4-dihydropyridine-fused heterocycles, process for preparing the same, use and compositions containing them” (Aventis Pharma S.A.., priority 2005, dated 2012)
Where two headings read alike, the source gives them in different places.

Chains of the proteins cited; added tags and fusions are not shown.
UniProt Q96GD4, whole entry, species assumed: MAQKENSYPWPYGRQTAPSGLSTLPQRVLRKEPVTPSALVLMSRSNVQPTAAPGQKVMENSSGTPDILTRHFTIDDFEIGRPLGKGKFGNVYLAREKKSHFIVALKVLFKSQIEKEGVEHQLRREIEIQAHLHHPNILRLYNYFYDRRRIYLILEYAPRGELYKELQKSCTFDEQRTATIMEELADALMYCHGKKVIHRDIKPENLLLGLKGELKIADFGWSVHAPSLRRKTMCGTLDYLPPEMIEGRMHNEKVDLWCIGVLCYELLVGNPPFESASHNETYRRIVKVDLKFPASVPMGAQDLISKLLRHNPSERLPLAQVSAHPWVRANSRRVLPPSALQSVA

Biological target: T1, Aurora1 (Aurora-B) (Homo sapiens, UniProt Q96GD4)
T1 construct: Aurora-B: the full length protein (His tagged in N-terminal) has been co expressed in SF9 cells; poly-histidine (N); made in house; host or cells: SF9 cells
Test: Aurora 1 (Aurora B) kinase radioactivity scintillation assay using nickel chelate Flash plates
Assay type: biochemical
Conditions: 10 nM Aurora-B (co expressed with C3 fragment of INCEP), 500 nM NuMA substrate, 1 μM ATP with [33P] ATP, 5 mM MgCl2, 30 minutes, 37° C.

| Structure (SMILES) | IC50 (Aurora1 IC50 (nM)) [nM] | IC50 (read-out: Aurora1 IC50) [nM] |
| --- | --- | --- |
| CCOC(=O)c1[nH]cc2c1NC1=C(C(=O)CCC1)C2c1ccc(Sc2nc3ccccc3[nH]2)o1 (single isomer, unassigned; (+)) [119a (+), (+)-9-[5-(1H-Benzimidazol-2-ylsulfanyl)-furan-2-yl]-8-oxo-4,5,6,7,8,9-hexahydro-2H-pyrrolo[3,4-b]quinoline-3-carboxylic acid ethyl ester] | 3 | – |
| CCOC(=O)c1[nH]cc2c1NC1=C(C(=O)CCC1)C2c1ccc(Sc2nc3ccccc3[nH]2)o1 (single isomer, unassigned; (-)) [119b (−), (−)-9-[5-(1H-Benzimidazol-2-ylsulfanyl)-furan-2-yl]-8-oxo-4,5,6,7,8,9-hexahydro-2H-pyrrolo[3,4-b]quinoline-3-carboxylic acid ethyl ester] | – | 483 |
| CCOC(=O)c1[nH]cc2c1NC1=C(C(=O)CCC1)C2c1ccc(Sc2nc3ccccc3[nH]2)o1 (stereo not drawn) [Example 105, 9-[5-(1H-Benzimidazol-2-ylsulfanyl)-furan-2-yl]-8-oxo-4,5,6,7,8,9-hexahydro-2H-pyrrolo[3,4-b]quinoline-3-carboxylic acid ethyl ester; compound with trifluoro-acetic acid] | – | 7 |
